# Permeability data for macrocyclic peptides

Collected by the curators of CycPeptMPDB (Li et al. 2023) from Furukawa et al. 2016, doi:10.1021/acs.jmedchem.6b01246.

PAMPA is the parallel artificial membrane permeability assay, which has no cells and reads passive diffusion.
Values are log10 P with P in cm/s, so -5 is more permeable than -7.

| SMILES | PAMPA (log10 cm/s) |
|---|---|
| CCCC[C@@H]1NC(=O)[C@H](CC(C)C)N(C)C(=O)CN(CCc2cccnc2)C(=O)[C@H](Cc2ccccc2)NC(=O)CN(CC(C)C)C(=O)[C@H]2CCCN2C1=O | -5.35 |
| CCCC[C@@H]1NC(=O)[C@H](CC(C)C)N(C)C(=O)CN(CCOC)C(=O)[C@H](C)NC(=O)CN(CCC)C(=O)[C@H]2CCCN2C1=O | -6.56 |
| CCCC[C@@H]1NC(=O)[C@H](CC(C)C)N(C)C(=O)CN(CCCc2ccccc2)C(=O)[C@H](Cc2ccc3ccccc3c2)NC(=O)CN(CCN2CCOCC2)C(=O)[C@H]2CCCN2C1=O | -6.37 |
| CCCC[C@@H]1NC(=O)[C@H](CC(C)C)N(C)C(=O)CN(CCCc2ccccc2)C(=O)[C@H](Cc2ccccc2)NC(=O)CN(CCCOC(C)C)C(=O)[C@H]2CCCN2C1=O | -5.86 |
| CCCC[C@@H]1NC(=O)[C@H](CC(C)C)N(C)C(=O)CN(CCOC)C(=O)[C@H](C)NC(=O)CN(CC)C(=O)[C@H]2CCCN2C1=O | -7.13 |
| CCCC[C@@H]1NC(=O)[C@H](CC(C)C)N(C)C(=O)CN(CCc2cccnc2)C(=O)[C@H](CC(C)C)NC(=O)CN(CCC)C(=O)[C@H]2CCCN2C1=O | -5.62 |
| CCCC[C@@H]1NC(=O)[C@H](CC(C)C)N(C)C(=O)CN(CC2CCOCC2)C(=O)[C@H](Cc2ccccc2)NC(=O)CN(CCN2CCOCC2)C(=O)[C@H]2CCCN2C1=O | -6.45 |
| CCCC[C@@H]1NC(=O)[C@H](CC(C)C)N(C)C(=O)CN(CCCc2ccccc2)C(=O)[C@H](Cc2ccccc2)NC(=O)CN(CCC)C(=O)[C@H]2CCCN2C1=O | -6.04 |
| CCCC[C@@H]1NC(=O)[C@H](CC(C)C)N(C)C(=O)CN(Cc2ccccc2)C(=O)[C@H](Cc2ccccc2)NC(=O)CN(CCC)C(=O)[C@H]2CCCN2C1=O | -5.63 |
| CCCC[C@@H]1NC(=O)[C@H](CC(C)C)N(C)C(=O)CN(CC2CCCCC2)C(=O)[C@H](CC(C)C)NC(=O)CN(CCC)C(=O)[C@H]2CCCN2C1=O | -5.70 |
| CCCC[C@@H]1NC(=O)[C@H](CC(C)C)N(C)C(=O)CN(CCCN2CCCC2=O)C(=O)[C@H](Cc2ccc3ccccc3c2)NC(=O)CN(CCCCc2ccccc2)C(=O)[C@H]2CCCN2C1=O | -7.28 |
| CCCC[C@@H]1NC(=O)[C@H](CC(C)C)N(C)C(=O)CN(Cc2ccccc2)C(=O)[C@H](Cc2ccc3ccccc3c2)NC(=O)CN(CC)C(=O)[C@H]2CCCN2C1=O | -6.08 |
| CCCC[C@@H]1NC(=O)[C@H](CC(C)C)N(C)C(=O)CN(CCc2cccnc2)C(=O)[C@H](CC(C)C)NC(=O)CN(Cc2cc(CC(C)C)on2)C(=O)[C@H]2CCCN2C1=O | -5.16 |
| CCCC[C@@H]1NC(=O)[C@H](CC(C)C)N(C)C(=O)CN(CCOC)C(=O)[C@H](Cc2ccc3ccccc3c2)NC(=O)CN(Cc2ccc3c(c2)OCO3)C(=O)[C@H]2CCCN2C1=O | -7.13 |

Extract of 2 entries:

| SMILES | PAMPA (log10 cm/s) |
|---|---|
| CCCC[C@@H]1NC(=O)[C@H](CC(C)C)N(C)C(=O)CN(CCCc2ccccc2)C(=O)[C@H](Cc2ccc3ccccc3c2)NC(=O)CN(CCN2CCOCC2)C(=O)[C@H]2CCCN2C1=O | -6.37 |
| CCCC[C@@H]1NC(=O)[C@H](CC(C)C)N(C)C(=O)CN(CC2CCCCC2)C(=O)[C@H](CC(C)C)NC(=O)CN(CCC)C(=O)[C@H]2CCCN2C1=O | -5.70 |

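Lipid, pH, incubation time, direction and concentration are not recorded in the data file. Other peptides of the study may be missing here. Entries at the database's floor value (log10 P of -10) are not listed.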